# Laboratory results as given in the Kinase Knowledgebase extract (Sharma et al. 2016).
# Sequences of proteins named here, by UniProt entry; tags and fusion partners are left off. A change or cut given only in a name is not applied to a line headed by its entry.
# UniProt O00329: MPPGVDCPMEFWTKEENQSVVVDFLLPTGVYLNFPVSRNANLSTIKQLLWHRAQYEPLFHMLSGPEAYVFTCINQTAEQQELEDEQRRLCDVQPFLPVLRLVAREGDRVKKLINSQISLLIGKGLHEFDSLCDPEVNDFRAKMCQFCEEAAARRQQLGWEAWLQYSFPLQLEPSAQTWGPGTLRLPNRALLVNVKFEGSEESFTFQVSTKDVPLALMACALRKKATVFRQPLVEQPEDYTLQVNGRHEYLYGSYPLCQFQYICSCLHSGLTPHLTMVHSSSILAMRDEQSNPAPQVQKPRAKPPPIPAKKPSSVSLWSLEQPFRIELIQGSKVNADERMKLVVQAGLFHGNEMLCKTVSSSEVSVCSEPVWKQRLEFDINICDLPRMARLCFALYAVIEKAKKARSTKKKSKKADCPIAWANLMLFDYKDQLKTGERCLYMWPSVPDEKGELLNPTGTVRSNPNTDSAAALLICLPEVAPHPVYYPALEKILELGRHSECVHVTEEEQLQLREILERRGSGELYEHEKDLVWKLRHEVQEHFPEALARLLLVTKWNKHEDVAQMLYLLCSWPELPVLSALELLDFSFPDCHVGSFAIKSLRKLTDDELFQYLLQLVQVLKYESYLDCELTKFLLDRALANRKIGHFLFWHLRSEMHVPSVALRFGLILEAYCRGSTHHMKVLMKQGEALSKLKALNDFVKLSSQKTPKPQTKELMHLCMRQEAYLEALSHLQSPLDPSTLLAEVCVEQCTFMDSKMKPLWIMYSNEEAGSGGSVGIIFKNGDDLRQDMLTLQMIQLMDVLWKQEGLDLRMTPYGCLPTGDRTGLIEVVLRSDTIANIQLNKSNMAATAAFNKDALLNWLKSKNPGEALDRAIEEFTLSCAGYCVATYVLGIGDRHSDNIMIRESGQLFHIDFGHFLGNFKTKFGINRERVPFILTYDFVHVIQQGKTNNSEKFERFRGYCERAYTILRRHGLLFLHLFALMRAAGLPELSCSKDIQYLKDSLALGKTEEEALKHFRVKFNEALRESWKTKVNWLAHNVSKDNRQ
# Target: PIK3CD (Human) (UniProt O00329)
# Assay: Assessment of PI3KCD Kinase Activity
row,SMILES,IC50 [nM]
1,Cc1ccccc1-n1c(Cn2nc(-c3cc(O)cc(F)c3)c3c(N)ncnc32)cc2cccc(C)c2c1=O,< 100
2,CC(=O)Nc1nc2ccc(-c3nn(Cc4cc5cccc(C)c5c(=O)n4-c4ccccc4C)c4ncnc(N)c34)cc2s1,< 100
